Shown are actives, neighbours in structure and some others; about 1.5% of the full set was active somewhere.
UUG fidelity: alters start codon recognition fidelity in yeast; S. cerevisiae UUG-firefly luciferase reporter, luminescence/redox ratio; activity score, % at 18.7 µM; actives 0.13% (n = 350,000); AID 602363;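 active = replicate mean at a twofold rise or more, about +100% in these data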;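 also: firefly luciferase made from a UUG start codon reports start codon fidelity; reporter light over untreated wells divided by growth signal over untreated wells; some hits fall short of that in this replicate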
PABP polyA inh: PABP-poly(A) binding inhibition. PABP-poly(A) RNA binding, fluorescence polarization. calls only at 35 µM. 290,000 compounds, 1% hits;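 also: calls also rest on retests at 20 µM and on dose response follow-up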
DSG3 Ab inh: inhibitors of pemphigus antibody binding to human desmoglein-3; P32926; DSG3-coupled beads, scFv-anti-DSG3-GFP binding, flow cytometry; stronger effect = lower value; binding (percent of control), % at 10 µM; 310,000 compounds, 0.48% hits; AID 588358;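 active = binding more than 3 SD below its plate's average and above zero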
eIF4H inh: inhibitors of RNA binding by human eIF4H. 290,000 compounds, 0.94% hits. Q15056. inhibition, % at 35 µM. eIF4H fluorescence polarization binding assay. AID 2012;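 also: calls also rest on retests at 20 µM and on dose response follow-up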
MLLE-PAM2 inh: blocks PAM2 peptide binding to the PABP1 MLLE domain; inhibition, % at 20 µM; P11940; 360,000 compounds, 0.36% hits; GST-MLLE / FITC-PAM2 fluorescence polarization; in the data active = inhibition above about 35%, passing the limit was not always enough;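 also: plate controls were DMSO wells with GST-MLLE for no effect and wells lacking GST-MLLE protein for full effect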
An asterisk follows results filed as active; i = inactive; x = no result given; + = active, no number. Unless noted, no rule for the calls is given here.

entry | UUG fidelity | PABP polyA inh | MLLE-PAM2 inh | eIF4H inh | DSG3 Ab inh | Compound
1 | 0 | x | x | x | x | O=C(Nc1ccccc1)N1CCCCN2[C@@H](CO)[C@@H](c3ccc(Br)cc3)[C@@H]2C1
2 | 8 | x | x | x | x | C[C@@H]1CN([C@@H](C)CO)C(=O)c2cccc(NS(C)(=O)=O)c2O[C@H]1CN(C)C(=O)Nc1ccc2c(c1)OCO2
3 | x | i | 43* | -5 | 90 | Cc1ccccc1NC(=O)CSc1nnc(C)c(=O)[nH]1
4 | 9 | x | x | x | x | CCCNC(=O)N1C[C@@H](C)[C@@H](OC)CN(C)C(=O)c2ccc(NC(C)=O)cc2OC[C@H]1C
5 | -12 | i | 0 | -17 | 97 | Cc1cccc(C)c1NC(=O)Cn1cnc2c(=O)n(C)c(=O)n(C)c21
6 | -12 | + | 7 | 47* | 106 | Cn1c(=O)c2ncn(CC(=O)Nc3ccc4c5c(cccc35)CC4)c2n(C)c1=O
7 | x | x | 43* | x | 100 | Cc1ccc(CN(C)C(=O)COC(=O)CSc2ccc([N+](=O)[O-])cc2)cc1
8 | 5 | x | 20 | x | 107 | Cc1ccccc1CN(C)C(=O)COC(=O)CSc1ccc([N+](=O)[O-])cc1
9 | -10 | i | 48 | 84* | x | CCc1ccc(C2C(C#N)=C(N)C(C#N)(C#N)C3=CCC(C(C)(C)C)CC32)cc1 (configuration not stated)
10 | -21 | x | 4 | x | 98 | CCCCCC(=O)N1C[C@H](O)[C@@H](n2cc(-c3ccc(F)cc3)nn2)C[C@@H]1c1ccc(C)cc1
11 | x | x | 13 | x | 79* | CCCCCC(=O)N1C[C@@H](O)[C@H](n2cc(-c3ccc(F)cc3)nn2)C[C@@H]1c1ccc(OC)cc1
12 | -9 | x | 4 | x | 86* | Cc1ccc(SCc2c(C(=O)N/N=C/c3ccc(C)o3)nnn2-c2nonc2N)cc1
13 | -30 | x | -5 | x | 3.4* | CCOc1ccc(-c2c(C(=O)N/N=C/c3ccco3)nnn2-c2nonc2N)cc1
14 | -6 | i | 8 | 9 | x | O=C1C2C3C=CC(C2C(=O)N1c1nccs1)C1C(=O)N(c2nccs2)C(=O)C31 (configuration not stated)
15 | x | + | 13 | 105* | 96 | O=C1C2C3C=CC(CC3)C2C(=O)N1c1nccs1 (configuration not stated)

eIF4H inh, entries above that show a hit
entry | UUG fidelity | PABP polyA inh | MLLE-PAM2 inh | eIF4H inh | DSG3 Ab inh | Compound
6 | -12 | + | 7 | 47* | 106 | Cn1c(=O)c2ncn(CC(=O)Nc3ccc4c5c(cccc35)CC4)c2n(C)c1=O
9 | -10 | i | 48 | 84* | x | CCc1ccc(C2C(C#N)=C(N)C(C#N)(C#N)C3=CCC(C(C)(C)C)CC32)cc1 (configuration not stated)
15 | x | + | 13 | 105* | 96 | O=C1C2C3C=CC(CC3)C2C(=O)N1c1nccs1 (configuration not stated)

(further entries)
entry | UUG fidelity | PABP polyA inh | MLLE-PAM2 inh | eIF4H inh | DSG3 Ab inh | Compound
16 | -11 | x | x | x | x | O=C(Nc1ccc(C(F)(F)F)cc1)N[C@@H]1CC[C@H](CCn2cc(C3(O)CCCC3)nn2)O[C@@H]1CO
17 | -10 | i | 16 | 3 | 107 | CCOC(=S)N/C(=N\S(=O)(=O)c1ccccc1)c1ccccc1
18 | x | i | 39* | -8 | 98 | CCOC(=S)N/C(=N\S(C)(=O)=O)c1ccccc1
19 | 0 | x | x | x | x | O=C([C@@H]1[C@@H](CO)[C@@H]2Cn3c(ccc(C4=CCCC4)c3=O)[C@H]1N2)N1CCCCC1
20 | x | i | 45* | -3 | 84 | Cc1[nH]n(-c2ccccc2)c(=O)c1C(c1ccc(C(=O)O)cc1)c1c(C)[nH]n(-c2ccccc2)c1=O
21 | -9 | i | 38* | 3 | 97 | COC(=O)c1ccc2c(=O)n(NC(=O)C(c3ccccc3)c3ccccc3)c(=S)[nH]c2c1
22 | -1 | i | -35 | 2 | 84 | COC(=O)c1ccc2c(=O)n(CCO)c(=S)[nH]c2c1
23 | -16 | + | -118 | 12 | 96 | CCC(=O)Nc1ccc(-c2nnc(SCC(=O)Nc3nccs3)n2C)cc1
24 | -15 | i | -19 | -6 | x | CCn1c(SCC(=O)Nc2nccs2)nnc1-c1ccc(C)cc1
25 | 0 | x | x | x | x | COc1ccc(S(=O)(=O)Nc2ccc3c(c2)C(=O)N([C@H](C)CO)C[C@H](C)[C@@H](CN(C)C(=O)CCC(F)(F)F)OCCCC[C@@H](C)O3)cc1
26 | -9 | + | -40 | 23 | 108 | COc1ccc(C(=O)Cn2nnc(-c3ccccc3NC(=O)C3CCCCC3)n2)cc1
27 | -17 | i | 2 | -9 | 100 | COc1ccc(NC(=O)Cn2nnc(-c3ccccc3NC(=O)C3CC3)n2)cc1
28 | 0 | x | x | x | x | Cc1ccc(S(=O)(=O)Nc2cccc3c2O[C@@H](CN(C)Cc2ccc(Oc4ccccc4)cc2)[C@@H](C)CN([C@@H](C)CO)C3=O)cc1
29 | 28 | x | x | x | x | C[C@@H]1CN([C@@H](C)CO)C(=O)c2cc(NC(=O)NC3CCCCC3)ccc2O[C@@H]1CN(C)Cc1ccc(-c2ccccc2)cc1
30 | -13 | i | 60* | 6 | 116 | CCOc1cc(C2C3=C(CCCC3=O)N(CC(=O)O)C3=C2C(=O)CCC3)ccc1OC
31 | 21 | x | x | x | x | CO[C@@H]1CN(C)C(=O)c2ccc(NC(=O)Cc3ccccc3)cc2OC[C@@H](C)N(C(C)=O)C[C@H]1C
32 | 12 | + | -10 | 87* | 105 | CCn1c(NC(=O)Nc2cccc(C)c2C)cc2sccc21
33 | x | + | -86 | 50* | 105 | O=C(CSc1nnc(COc2ccccc2)n1Cc1ccco1)NCc1ccco1
34 | x | i | 43* | 26 | 106 | O=C(CSc1nnc2c(n1)[nH]c1ccccc12)NCc1ccco1
35 | -6 | x | x | x | x | C[C@@H]1CN([C@@H](C)CO)C(=O)c2cccc(NS(=O)(=O)c3ccc(Cl)cc3)c2O[C@H]1CN(C)Cc1ccc(Cl)c(Cl)c1
36 | -35 | x | x | x | x | COc1ccccc1S(=O)(=O)N1CC[C@@H]2[C@H]1c1cc(-c3ccccc3F)ccc1N[C@@H]2CO
37 | 1 | + | 31 | 62* | 111 | O=C(CSc1nnc(Cc2cc(=O)[nH]c(=O)[nH]2)n1-c1ccc(Cl)cc1)NC1CCCC1
38 | -9 | i | 12 | 30 | 112 | COc1ccc(-n2c(Cc3cc(=O)[nH]c(=O)[nH]3)nnc2SCC(=O)NC2CCCC2)cc1
39 | 10 | x | x | x | x | Cc1noc(C)c1NC(=O)Nc1ccc2c(c1)C(=O)N([C@@H](C)CO)C[C@H](C)[C@@H](CN(C)S(=O)(=O)c1ccccc1)OCCCC[C@H](C)O2
40 | -9 | i | 3 | -4 | -27* | COC(=O)c1cc(/C=C/c2ccccc2)on1
41 | -3 | i | 2 | 86 | 102 | COC(=O)c1cc(/C=C/c2ccccc2)[nH]n1
42 | -11 | x | x | x | x | O=C(NC1CCCC1)N1CCCCN2[C@@H](CO)[C@@H](c3ccc(-c4ccccc4)cc3)[C@@H]2C1
43 | -21 | i | 11 | -12 | 27* | CNC(=S)N/N=C/c1c(C)nn(-c2cccc(Cl)c2)c1Cl
44 | -24 | i | -8 | 3 | 86 | Oc1ccc(C=Nc2ccccc2-c2nc3ccccc3[nH]2)c(O)c1
45 | -8 | + | -9 | 5.7* | 85 | Oc1ccccc1C=Nc1ccccc1-c1nc2ccccc2[nH]1
46 | -15 | i | -7 | 69* | 106 | NC(=O)CC(NC(=O)Cc1ccc(Cl)cc1)c1ccc(NCCCN2CCCC2=O)c([N+](=O)[O-])c1 (configuration not stated)
47 | 3 | i | -7 | 25 | 95 | NC(=O)CC(NC(=O)c1ccccc1)c1ccc(NCCCN2CCCC2=O)c([N+](=O)[O-])c1 (configuration not stated)
48 | 3 | x | -1 | x | 102 | NC(=O)CC(NC(=O)Cc1ccc(Br)cc1)c1ccc(NC2CCCCCCC2)c([N+](=O)[O-])c1 (configuration not stated)

Ordered by value in eIF4H inh (lowest first): 3 from the list above.
| No. | mol | eIF4H inh |
| --- | --- | --- |
| 38 | COc1ccc(-n2c(Cc3cc(=O)[nH]c(=O)[nH]3)nnc2SCC(=O)NC2CCCC2)cc1 | 30 |
| 46 | NC(=O)CC(NC(=O)Cc1ccc(Cl)cc1)c1ccc(NCCCN2CCCC2=O)c([N+](=O)[O-])c1 (configuration not stated) | 69* |
| 41 | COC(=O)c1cc(/C=C/c2ccccc2)[nH]n1 | 86 |

Screening results: PubChem BioAssay, several laboratories
